Measured values: patent US12625141B2, “Fluorescent dye, preparation method and uses thereof” (FLUORESCENCE DIAGNOSIS (SHANGHAI) BIOTECH COMPANY LTD., priority 2019, dated 2026)

Experiments:
[1] = tested on: F30-8Pepper-5 RNA aptamer

CN(CCO)c1ccc(/C=C(\C#N)c2ccc(C#N)cc2)cn1 [III-8]
Fluorescence of cells not expressing the RNA aptamer (RNA aptamer in cells; cells not expressing the RNA aptamer (FIG. 17B)): no fluorescence
Fluorescence of cells transcribing the RNA aptamer (RNA aptamer in cells; cells transcribing the RNA aptamer (FIG. 17A)): bright fluorescence
Em/nm ([1]; after binding to RNA aptamer): 508 nm
Ex/nm ([1]; after binding to RNA aptamer): 458 nm
ε ([1]; after binding to RNA aptamer): 42500 M⁻¹ cm⁻¹
QY (−) ([1]; after binding to RNA aptamer, relative method with Rhodamine 6G as the standard): 0.30
Kd ([1]; binding to RNA aptamer): 27 nM
Activation Multiple ([1]; fluorescence activation after binding to RNA aptamer): 9091
